Values of other authors in US11357232B2, “Methods of improving soil health, growth and vigor of perennial grass communities” (Edaphix, LLC, priority 2013, dated 2022).

Tested on: humans
Conditions: U.S. EPA, 2005 carcinogen assessment guidelines; cited from earlier work

## OB(O)O [Boric acid]
  carcinogenicity classification: not likely to be carcinogenic to humans
